Reference: patent US4900748A (priority 1988, dated 1990)

Amino acid sequences for entries named in this document (tags omitted). Residues count along the entry.
UniProt O42275, 24-633: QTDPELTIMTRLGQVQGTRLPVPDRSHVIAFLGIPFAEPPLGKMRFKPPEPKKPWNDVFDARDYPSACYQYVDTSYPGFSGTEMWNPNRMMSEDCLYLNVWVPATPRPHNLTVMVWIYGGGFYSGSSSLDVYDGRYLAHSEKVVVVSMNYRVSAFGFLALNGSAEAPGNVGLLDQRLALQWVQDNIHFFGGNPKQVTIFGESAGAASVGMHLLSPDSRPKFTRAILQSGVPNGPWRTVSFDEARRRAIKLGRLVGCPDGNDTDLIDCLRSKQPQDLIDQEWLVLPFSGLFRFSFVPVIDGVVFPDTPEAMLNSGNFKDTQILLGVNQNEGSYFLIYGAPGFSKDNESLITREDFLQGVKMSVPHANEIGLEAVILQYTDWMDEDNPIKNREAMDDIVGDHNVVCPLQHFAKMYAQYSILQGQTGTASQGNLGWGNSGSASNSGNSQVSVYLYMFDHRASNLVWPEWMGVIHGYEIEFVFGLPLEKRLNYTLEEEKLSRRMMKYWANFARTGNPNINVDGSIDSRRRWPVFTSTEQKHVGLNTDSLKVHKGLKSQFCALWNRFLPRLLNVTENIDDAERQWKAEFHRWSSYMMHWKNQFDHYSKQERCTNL

Molecular target: Acetylcholinesterase (Eel) (Electrophorus electricus, UniProt O42275)
Test: biochemical

SMILES: CNC(=O)Oc1ccc2c(c1)[C@]1(C)CCN(C)[C@@H]1N2C (relative stereo) [(+/-)physo, reference compound]
- IC50: 92 nM
